Reference: patent publication US20240226255A9, “COMPOSITIONS AND METHODS FOR ACTIVATING NK CELLS” (The Regents of the University of California, priority 2021, published 2024)

Test system: YAC-1 cells
Assay: 4 h 51Chromium release assay of mouse NK cells cultured with monocytes ± LPS against YAC-1
Assay type: cell-based
Conditions: IL-2-treated WT NK cells + monocytes from Cox-2flox/flox;LysMCre/+ mice; LPS 20 ng/mL
Description: IL-2-treated (1×10^4 U/million) NK cells obtained from wild type mice were cultured with monocytes from wild type mice or Cox-2flox/flox;LysMCre/+ mice for 7 days and then treated with or without LPS (20 ng/mL) for an additional day. Afterward, NK cells were used as effector cells in a standard 4 h ^51Chromium release assay against YAC-1 cells. […] NK cells were treated as described in (FIG. 4A) and afterward the supernatant was removed from the co-cultures and the levels of IFN-γ secretion were determined using specific ELISAs. *P<0.05 was obtained for differences in secretion of IFN-γ between untreated and LPS-treated NK cells cultured with monocytes from control littermates or those from Cox-2flox/flox;LysMCre/+ mice (FIG. 4B). NK cells were prepared as described in (FIG. 4A) and used as effector cells against DCs derived from monocytes from either wild type or Cox-2flox/flox; LysMCre/+ mice in a standard 4 h ^51Chromium release assay. […] One of several representative experiments is shown in this figure.
Purified NK cells obtained from control WT littermates were treated with IL-2 and cultured in the presence of autologous monocytes or those obtained from Cox-2flox/flox; LysMCre/+ mice in the absence and presence of LPS before they were used in a standard ^51Cr release assay against YAC-1 tumors. […]

**Q.** Lipopolysaccharide [LPS] was tested. Which “NK cell-mediated cytotoxicity against YAC-1 cells” value did it give?
**A.** The value was “completely abolished”.
